Reference: patent publication US7427640B1, “Oil materials comprising dimerdiol ester and cosmetics comprising the ester” (Nippon Fine Chemical Co., Ltd., priority 1999, dated 2008)

Experiments:
[1] = Oxidation stability, Rancimat 676 automatic oils and fats stability test; type: physicochemical
Source text: Index of the oxidation stability was expressed by the time until conductance of the trapped water started rising. […] Index of the oxidation stability was expressed by the time until conductance of the trapped water started rising.

[2] = Dispersability for pigment, red iron oxide; type: physicochemical; conditions: amount of tested sample per 100 g of the pigment at flow point
Protocol: Dispersability for pigment, titanium dioxide, red iron oxide and organic pigment Red No. 202, of the esters obtained in Examples 28-35, polybutene (PARLEAM 18, manufactured by NOF CORP.) and di-isostearyl malate (Cosmol 222, manufactured by Nissin Oil Mills Ltd.) were measured. Titanium dioxide, red iron oxide and organic pigment used in the measurement are PIGMOLITE CR-50, PIGMOLITE BENGARA No. 211 and Red 202, respectively, manufactured by DAITO KASEI KOGYO Co. Ltd. The dispersability is expressed by amount (g) of the tested sample per 100 g of the pigment at wet point (W.P) and flow point (F.P).

Row | Compound | Index of oxidation stability [1] | Red iron oxide F.P [2] [g]
1 | tocopherol mixture added isostearic acid dimerdiol ester [Example 12] | 48 hrs. or more | 
2 | tocopherol mixture added long chain branched fatty acid dimerdiol ester [Example 8] | 30 h | 
3 | tocopherol mixture added erucic acid dimerdiol ester [Example 4] | 27 h | 
4 | tocopherol mixture added hydrogenated rosin/erucic acid dimerdiol ester [Example 10] | 26 h | 
5 | CC(C)CCCCCCCCCCCCCCCOC(=O)CC(O)C(=O)OCCCCCCCCCCCCCCCC(C)C (centres unmarked) [di-iostearyl malate, di-isostearyl malate] |  | 188
